# OPERA 2.9 data: properties

Melting points are in °C.
Boiling points are in °C, nominally at 760 mmHg.
The octanol-water partition coefficient is given as log10; larger values mean a more lipophilic compound.
Water solubility is log10 of mol/L, nominally at 25 °C; higher is more soluble.
Vapor pressures (log10 mmHg) refer to near room temperature, 15 to 30 °C; higher is more volatile.
Henry's law constant (air-water partitioning) is log10 of atm·m3/mol, nominally at 25 °C.
fu is the fraction unbound in human plasma, from 0 to 1.
"–" marks a cell with nothing listed here.

structure (SMILES),name,melting point (°C),BP (°C),log Kow,log S (log10 mol/L),log VP (log10 mmHg),log Henry constant (log10 atm·m3/mol),fraction unbound
Cc1ccc(C(=O)CC(=O)C(F)(F)F)cc1,"4,4,4-Trifluoro-1-(4-methylphenyl)butane-1,3-dione",–,–,1.95,-2.641,-2.109,–,–
CNc1ccc(C(O)(c2ccc(N(C)C)cc2)c2ccc(N(C)C)cc2)cc1,"4,4'-Bis(dimethylamino)-4''-(methylamino)trityl alcohol",160,–,–,-3.509,–,–,–
CCn1c(O)c(N=Nc2ccc(C(=O)OCCOCCOC)cc2)c(C)c(C#N)c1=O,–,182.3,–,4.7,-7.03,–,–,–
CC(C)CCCCCCOP(=O)(O)O,"Phosphoric acid, isononyl ester",–,160,1.09,–,-6.011,–,–
CCCCCC(C)(C)OC,2-Methoxy-2-methylheptane,–,160.5,3.7,-3.084,0.929,–,–
CCCCC(CC)COC(=O)c1ccc(Nc2nc(Nc3ccc(C(=O)NC(C)(C)C)cc3)nc(Nc3ccc(C(=O)OCC(CC)CCCC)cc3)n2)cc1 (stereo unspecified),Iscotrizinol,89.5,–,4.12,–,-5.846,–,–
CCCC/C=C\CCCCCCCCOC(C)=O,(Z)-9-Tetradecenyl acetate,–,–,–,-6.71,-5.893,-2.403,–
CCCCCCC(CCCCCCCCCCC(=O)OCC(COC(=O)CCCCCCCCCCC(CCCCCC)OC(C)=O)OC(=O)CCCCCCCCCCC(CCCCCC)OC(C)=O)OC(C)=O (stereo unspecified),–,–,–,–,-8.986,-10.01,–,–
C[C@@H]1C[C@H]2[C@@H]3CCC4=CC(=O)C=C[C@]4(C)[C@@]3(Cl)[C@@H](O)C[C@]2(C)[C@@]1(O)C(=O)CCl,Mometasone,–,–,2.1,-4.912,–,–,0.015
c1ccc(-c2ccc(-c3nc(-c4ccc(-c5ccccc5)cc4)nc(-c4ccc(-c5ccccc5)cc4)n3)cc2)cc1,Tris-biphenyl triazine,281.3,–,5.6,-10.25,–,–,–
COc1cc(OC)nc(NC(=O)NS(=O)(=O)Nc2ccccc2C(=O)N(C)C)n1,Orthosulfamuron,–,–,1.665,-2.83,-6.068,–,–
CC(=O)OCC(CCn1cnc2cnc(N)nc21)COC(C)=O,Famciclovir,–,–,0.6,-2.386,–,–,0.85
CC(CC=O)CCCC(C)(C)O (stereo unspecified),Hydroxycitronellal,–,–,1.68,-1.753,-2.312,–,–
COc1ccc(C(=O)c2ccccc2)c(O)c1,2-Hydroxy-4-methoxybenzophenone,–,–,–,-3.251,-5.255,–,–
CCCCCCCCCCCCOC(=O)CCCCCCCC,Dodecyl nonan-1-oate,15.2,–,–,-8.128,–,–,–
O=C1CC/C=C\CCCCCCCCCC1,(4Z)-Cyclopentadec-4-en-1-one,–,–,5.154,-4.883,-2.929,–,–
OCc1cncs1,5-Hydroxymethylthiazole,–,–,-0.17,–,-1.846,–,–
CCCCCC1(C)CCC(C)(C)C1=O (stereo unspecified),"2,2,5-Trimethyl-5-pentylcyclopentan-1-one",–,–,4.7,-4.017,-1.161,–,–
C=Cn1ccnc1,"1H-Imidazole, 1-ethenyl-",–,–,0.75,–,-0.426,–,–
CCc1ccc(-c2ccc(B(O)O)c(F)c2)cc1,"(4'-Ethyl-3-fluoro[1,1'-biphenyl]-4-yl)boronic acid",135.8,–,4.3,-4.009,-12.15,–,–
CC(C)(CO)Cc1ccccc1,Dimethyl phenylpropanol,–,–,2.24,-2.042,-0.4,–,–
NCC1CCCC(CN)C1 (stereo unspecified),"1,3-Cyclohexanedimethanamine",–,–,0.73,–,-0.593,–,–
O=C(O)[C@@H]1C2CCC(CC2)[C@H]1Nc1nc(Cl)ncc1F,–,217,–,–,-3.572,-9.636,–,–
CC(=O)O/N=C(\C(=O)Sc1nc2ccccc2s1)c1csc(N)n1,–,110,–,–,-6.685,–,–,–

A selection of 3 entries from above:

| structure (SMILES) | name | melting point (°C) | BP (°C) | log Kow | log S (log10 mol/L) | log VP (log10 mmHg) | log Henry constant (log10 atm·m3/mol) | fraction unbound |
|---|---|---|---|---|---|---|---|---|
| COc1cc(OC)nc(NC(=O)NS(=O)(=O)Nc2ccccc2C(=O)N(C)C)n1 | Orthosulfamuron | – | – | 1.665 | -2.83 | -6.068 | – | – |
| CCn1c(O)c(N=Nc2ccc(C(=O)OCCOCCOC)cc2)c(C)c(C#N)c1=O | – | 182.3 | – | 4.7 | -7.03 | – | – | – |
| CCCC/C=C\CCCCCCCCOC(C)=O | (Z)-9-Tetradecenyl acetate | – | – | – | -6.71 | -5.893 | -2.403 | – |

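The numbers are reported measurements, compiled and curated for the OPERA QSAR suite. A listed value is a point estimate from one report or more. Conditions of the individual experiments are not part of the data. The measured form (salt, isomer or mixture) is not always the one drawn. Unmarked limits or estimates from the upstream databases cannot be ruled out.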

Data: OPERA 2.9 data sets, kmansouri/OPERA on GitHub.